Holding throughout (experiment): FOREST: bead pull-down of RNA structure library v1, barcode microarray; U1A/LIN28A: 20 mM HEPES pH 7.5, 80 mM KCl, 20 mM NaCl, 10% glycerol, 2 mM DTT, 0.1 ug/uL BSA, 4 C; BG4/CIRBP/DHX36: 10 mM Tris-HCl pH 7.5, 100 mM KCl (or LiCl),; high values mean tight binding
One experiment deals with U1A (Homo sapiens, UniProt P09012).
The next experiment deals with T1, LIN28A (human?, UniProt Q9H9Z2 1-209).
T1 sequence: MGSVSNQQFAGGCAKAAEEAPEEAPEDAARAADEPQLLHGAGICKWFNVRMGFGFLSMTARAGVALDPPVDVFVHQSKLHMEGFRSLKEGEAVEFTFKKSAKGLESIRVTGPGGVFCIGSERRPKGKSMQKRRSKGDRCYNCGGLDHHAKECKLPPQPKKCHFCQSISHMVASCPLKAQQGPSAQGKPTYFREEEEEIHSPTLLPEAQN

For a further experiment, the target named is T2, CIRBP (Homo sapiens, UniProt Q14011 1-172).
T2 sequence: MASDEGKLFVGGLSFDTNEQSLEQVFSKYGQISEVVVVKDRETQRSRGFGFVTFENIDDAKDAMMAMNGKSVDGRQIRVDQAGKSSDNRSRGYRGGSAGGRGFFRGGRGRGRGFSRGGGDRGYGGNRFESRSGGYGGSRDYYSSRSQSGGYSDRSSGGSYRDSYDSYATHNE

The next experiment concerns the target T3, DHX36 (Homo sapiens, UniProt Q9H2U1 1-1008).
T3 sequence: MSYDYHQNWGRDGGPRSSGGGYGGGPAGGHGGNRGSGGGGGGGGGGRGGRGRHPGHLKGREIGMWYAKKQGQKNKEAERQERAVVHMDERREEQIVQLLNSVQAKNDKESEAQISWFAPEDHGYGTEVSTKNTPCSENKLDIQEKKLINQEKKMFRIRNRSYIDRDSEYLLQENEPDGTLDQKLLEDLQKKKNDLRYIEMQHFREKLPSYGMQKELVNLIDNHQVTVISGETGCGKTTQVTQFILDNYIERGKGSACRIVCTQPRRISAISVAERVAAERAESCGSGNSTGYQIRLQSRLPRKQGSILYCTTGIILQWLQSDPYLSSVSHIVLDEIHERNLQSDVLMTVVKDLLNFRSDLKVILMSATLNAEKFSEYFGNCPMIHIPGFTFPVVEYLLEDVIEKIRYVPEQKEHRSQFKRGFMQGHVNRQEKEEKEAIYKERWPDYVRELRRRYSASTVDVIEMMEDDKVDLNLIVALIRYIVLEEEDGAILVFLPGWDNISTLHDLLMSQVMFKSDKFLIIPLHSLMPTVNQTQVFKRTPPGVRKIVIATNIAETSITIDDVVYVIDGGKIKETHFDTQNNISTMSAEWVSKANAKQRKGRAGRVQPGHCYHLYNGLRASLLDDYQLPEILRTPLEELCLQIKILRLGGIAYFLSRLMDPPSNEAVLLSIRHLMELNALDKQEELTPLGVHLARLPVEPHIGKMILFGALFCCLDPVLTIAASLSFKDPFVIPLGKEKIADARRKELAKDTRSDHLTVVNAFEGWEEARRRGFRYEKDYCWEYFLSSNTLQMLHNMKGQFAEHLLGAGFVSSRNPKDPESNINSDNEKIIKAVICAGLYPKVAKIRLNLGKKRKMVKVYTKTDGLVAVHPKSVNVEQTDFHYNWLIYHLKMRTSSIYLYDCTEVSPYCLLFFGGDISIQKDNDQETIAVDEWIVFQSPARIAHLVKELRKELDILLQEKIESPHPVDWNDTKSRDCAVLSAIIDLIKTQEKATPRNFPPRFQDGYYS

The other results are listed elsewhere or left out.

B1: hsa-mir-1272 (structured_RNA)
RNA: GGGAGUAUCAAACUAAUCAACGACCCUCGGUGUACGAAGUUUCAGCAAACGUGCUCAGUGUCUUUAUAACAGGAAAGCCGUAAACGCUGAAGCUUCGUGCAC
As for B1, the binding signal is 0.162 z-score with U1A, 0.939 z-score with LIN28A, 2.39 z-score in the experiment with CIRBP and 0.463 z-score with DHX36.

B2: hsa-mir-1228 (structured_RNA)
RNA: GGGAGGACAUACGGCUACAUGGAGCGUUGGUGUACGAAGUUUCAGCUGUGGUGGGUGGUGGCCUGCGGUGAGCAGGGCCCUCAGCUGAAGCUUCGUGCAC
On to B2, for which the binding signal was found to be 0.173 z-score in the experiment with U1A, 1.2 z-score with LIN28A, 0.626 z-score in the experiment with CIRBP and 3.46 z-score with DHX36.

B3: hsa-mir-8059 (structured_RNA)
RNA: GGGAACCCUGAGCGUUGGGAAGUUAAUCGGUGUACGAAGUUUCAGCAGGCUUGGCACUUGAGGGAAAGCCUGCUGAAGCUUCGUGCAC
On to B3, for which the binding signal with U1A is 0.17 z-score; with LIN28A it was 0.0399 z-score; with CIRBP, 0.479 z-score; with DHX36, -0.756 z-score.

B4: hsa-mir-1302-6 (structured_RNA)
RNA: GGGAAAAGUAAGGCAGUUAAGCACGCACGGUGUACGAAGUUUCAGCCACAAUAUUUAGGACAACAAUAUUGCUGAAGCUUCGUGCAC
B4: the binding signal with U1A is 1.82 z-score; with LIN28A it was 1.56 z-score; in the experiment with CIRBP it was 0.581 z-score; with DHX36, 0.767 z-score.

B5: hsa-mir-4633 (structured_RNA)
RNA: GGGAACUGAGAUAGCGCAAGACUCGAUAGGUGUACGAAGUUUCAGCUCCUCCACAAAUGCGUGUGGAGGAGCUGAAGCUUCGUGCAC
Turning to B5, the binding signal was 0.164 z-score with U1A, -0.881 z-score with LIN28A, -0.0769 z-score with CIRBP and -0.193 z-score with DHX36.

B6: hsa-mir-1827 (structured_RNA)
RNA: GGGAUAAAUACCGGGCGGCGUGAUUCUGGGUGUACGAAGUUUCAGCUUCAGCCUAAAGCAAUGAGAAGCCUCUGAAAGGCUGAGCUGAAGCUUCGUGCAC
Take B6: the binding signal came to 0.178 z-score in the experiment with U1A, 0.764 z-score in the experiment with LIN28A, 0.103 z-score with CIRBP and 0.652 z-score in the experiment with DHX36.

B7: hsa-mir-1471 (structured_RNA)
RNA: GGGAAUAGUUACUAAGGCCAAAUGAAGCGGUGUACGAAGUUUCAGCGUGUAGAGGCGGAGCACAGGCUGAAGCUUCGUGCAC
On to B7, for which the binding signal in the experiment with U1A was 0.178 z-score; with LIN28A it was 2.14 z-score; with CIRBP it was 2.13 z-score; with DHX36, 1.02 z-score.

B8: hsa-mir-6826 (structured_RNA)
RNA: GGGAUGCAGGUAUGAUACACGGAAGAUCGGUGUACGAAGUUUCAGCACCUCCUGGCUUUUCCUCUGCAGCAUGGCUCGGACCUAGUGCAAUGUUUAAGCUGCUGAAGCUUCGUGCAC
Regarding B8, the binding signal with U1A is 0.157 z-score; with LIN28A it was 0.256 z-score; with CIRBP, 0.258 z-score; with DHX36, -0.0125 z-score.

B9: hsa-mir-3156-1 (structured_RNA)
RNA: GGGACAGGCGAUACCCCUGUAAACCGAUGGUGUACGAAGUUUCAGCGGAGACACUUUUACUAUAUAUAGUGGCUCCGCUGAAGCUUCGUGCAC
In the case of B9, the binding signal with U1A is 0.176 z-score; in the experiment with LIN28A, 0.515 z-score; in the experiment with CIRBP, 1.16 z-score; with DHX36, -0.317 z-score.

B10: hsa-mir-4640 (structured_RNA)
RNA: GGGAAUAAGUCGUCGCGUGAUCCAGCUAGGUGUACGAAGUUUCAGCGGUGGGUGGGAAGUAAGAUCUGACCUGGACUCCAUCCCACCCACCGCUGAAGCUUCGUGCAC
B10: the binding signal is 0.158 z-score in the experiment with U1A, 0.0521 z-score with LIN28A, 0.747 z-score in the experiment with CIRBP and 3.72 z-score in the experiment with DHX36.

B11: hsa-mir-219a-1 (structured_RNA)
RNA: GGGACGUCGACGGUCACAGUAAAAUCAGGGUGUACGAAGUUUCAGCUUCUCGAGUCUAUGGCUCCGGCCGAGAGGCUGAAGCUUCGUGCAC
For B11, the binding signal in the experiment with U1A is 0.16 z-score; with LIN28A, -0.743 z-score; in the experiment with CIRBP it was -0.41 z-score; in the experiment with DHX36 it was -1.05 z-score.

B12: hsa-mir-1205 (structured_RNA)
RNA: GGGAAGGGUACCCAUAACACGACGAAAGGGUGUACGAAGUUUCAGCUGAGGUACUUCCUUCGCUGAAGCUUCGUGCAC
Turning to B12, the binding signal with U1A was 0.161 z-score; with LIN28A, -0.0674 z-score; with CIRBP, 1.24 z-score; with DHX36, 0.304 z-score.

B13: hsa-mir-4462 (structured_RNA)
RNA: GGGAACUUACUGAGAGGGCAGCCGACUCGGUGUACGAAGUUUCAGCGUCAGGAGUGGCUUUCCUGACGCUGAAGCUUCGUGCAC
On to B13, for which the binding signal is 0.176 z-score with U1A, 0.849 z-score in the experiment with LIN28A, -0.014 z-score with CIRBP and 0.178 z-score in the experiment with DHX36.

B14: hsa-mir-8055 (structured_RNA)
RNA: GGGAAACAGCCGAGUGUGCUGAAUCCAUGGUGUACGAAGUUUCAGCAAAUAAAAGAUGGAGUCGUUUGACGUCUUUUAACACCCUUUGCUGAAGCUUCGUGCAC
With B14, the binding signal in the experiment with U1A was 0.158 z-score; with LIN28A it was 0.573 z-score; with CIRBP, -0.38 z-score; with DHX36 it was 0.267 z-score.

B15: hsa-mir-6831 (structured_RNA)
RNA: GGGAAGGCAGACUGUAGCGUCUUACGGGGGUGUACGAAGUUUCAGCGGUCUGAGCCCAUGUGUGGACCUAGGUCUGCUGUUAAACUGACUGCUGAAGCUUCGUGCAC
For the molecule B15, the binding signal in the experiment with U1A was 0.168 z-score; in the experiment with LIN28A it was 0.00922 z-score; with CIRBP it was -0.558 z-score; in the experiment with DHX36, 0.267 z-score.

B16: hsa-mir-5591 (structured_RNA)
RNA: GGGACAUAUGAAAAGGGGAGUCUCACGGGGUGUACGAAGUUUCAGCGUAUACUGAGCUUAUGUAUGCAUCUGCAUACGCUGAAGCUUCGUGCAC
As to B16, the binding signal in the experiment with U1A is 0.171 z-score; with LIN28A, -1.02 z-score; with CIRBP, -0.345 z-score; with DHX36, -0.478 z-score.

B17: hsa-mir-3127 (structured_RNA)
RNA: GGGACUACGCGCGCCAUCGUUUAGCUUUGGUGUACGAAGUUUCAGCGGGAAGGAGAAGGGACGCUUCCCGCUGAAGCUUCGUGCAC
In the case of B17, the binding signal was 0.161 z-score in the experiment with U1A, -0.108 z-score with LIN28A, -0.621 z-score with CIRBP and 1.5 z-score with DHX36.

B18: hsa-mir-6516 (structured_RNA)
RNA: GGGAAACCGCACUGAGCGAAAUGUGACCGGUGUACGAAGUUUCAGCUGAGCAUUCUAGCAGCAGUUUGAUGAUCAGCUGAAGCUUCGUGCAC
For the molecule B18, the binding signal is 0.169 z-score with U1A, -0.364 z-score in the experiment with LIN28A, -0.846 z-score in the experiment with CIRBP and -0.497 z-score in the experiment with DHX36.

B19: hsa-mir-644a (structured_RNA)
RNA: GGGCCAUAUGUACCGGGCAUCACUCCAGGGUGUACGAAGUUUCAGCCUCUGUAGUUUUCUUAUAGUGGCUGAAGCUUCGUGCAC
For B19, the binding signal with U1A was 0.166 z-score; with LIN28A, -0.37 z-score; with CIRBP it was 0.268 z-score; in the experiment with DHX36, -1.03 z-score.

B20: hsa-mir-6768 (structured_RNA)
RNA: GGGACGCACUAACAUUGAGUUACCGGAAGGUGUACGAAGUUUCAGCCUGGGUUCGGCUGCUACCCCAAAGCUGAAGCUUCGUGCAC
Consider B20, for which the binding signal is 0.163 z-score in the experiment with U1A, -1.17 z-score with LIN28A, -0.742 z-score with CIRBP and -0.251 z-score in the experiment with DHX36.

B21: hsa-mir-490 (structured_RNA)
RNA: GGGACACAUCGGUCAAUCACGAGGCAGAGGUGUACGAAGUUUCAGCGUGGGUCAAGUUUAGAGAUGCACCAACGCUGAAGCUUCGUGCAC
In the case of B21, the binding signal in the experiment with U1A is 0.178 z-score; with LIN28A it was 1.68 z-score; in the experiment with CIRBP, 0.606 z-score; with DHX36, -0.204 z-score.

B22: hsa-mir-1268a (structured_RNA)
RNA: GGGACACCUGAAGGGGAGUAGCAUACUAGGUGUACGAAGUUUCAGCGGGGCCUGUGGUCCCGCUGAAGCUUCGUGCAC
Turning to B22, the binding signal with U1A came out at 0.169 z-score; with LIN28A it was 0.497 z-score; with CIRBP, 0.345 z-score; with DHX36 it was 0.271 z-score.

B23: hsa-mir-4259 (structured_RNA)
RNA: GGGAAAAGCGGAGGUCACACAAGGUUUUGGUGUACGAAGUUUCAGCGGUGGGGGCUCUGAGUGGGGAAAGUGGGGGCCUAGGGGAGGUCACAGUGCUGAAGCUUCGUGCAC
Take B23: the binding signal was found to be 1.82 z-score with U1A, 2.07 z-score with LIN28A, 3.48 z-score with CIRBP and 5.29 z-score with DHX36.

(Values after paper PMC7723054.)
